According to PubChem BioAssay AID631 (The Scripps Research Institute Molecular Screening Center, 2007):
The entries are a selection whose mix differs from that of the whole data set. The source made the active and inactive calls. Rule as the data show it: active = activation above about 19%; inactive = the rest.

By UniProt entry, the sequences of proteins in these tests, tags left out. Residues count along the entry.
UniProt P37231, 232-505 limits assumed: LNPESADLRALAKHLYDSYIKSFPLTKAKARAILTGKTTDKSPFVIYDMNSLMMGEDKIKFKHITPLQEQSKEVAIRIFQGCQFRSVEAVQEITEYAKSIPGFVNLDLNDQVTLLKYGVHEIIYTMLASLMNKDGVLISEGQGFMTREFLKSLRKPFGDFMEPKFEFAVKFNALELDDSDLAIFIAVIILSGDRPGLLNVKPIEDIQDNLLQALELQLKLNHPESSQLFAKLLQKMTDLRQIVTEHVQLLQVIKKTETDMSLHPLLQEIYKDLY
UniProt Q15788, whole entry partner: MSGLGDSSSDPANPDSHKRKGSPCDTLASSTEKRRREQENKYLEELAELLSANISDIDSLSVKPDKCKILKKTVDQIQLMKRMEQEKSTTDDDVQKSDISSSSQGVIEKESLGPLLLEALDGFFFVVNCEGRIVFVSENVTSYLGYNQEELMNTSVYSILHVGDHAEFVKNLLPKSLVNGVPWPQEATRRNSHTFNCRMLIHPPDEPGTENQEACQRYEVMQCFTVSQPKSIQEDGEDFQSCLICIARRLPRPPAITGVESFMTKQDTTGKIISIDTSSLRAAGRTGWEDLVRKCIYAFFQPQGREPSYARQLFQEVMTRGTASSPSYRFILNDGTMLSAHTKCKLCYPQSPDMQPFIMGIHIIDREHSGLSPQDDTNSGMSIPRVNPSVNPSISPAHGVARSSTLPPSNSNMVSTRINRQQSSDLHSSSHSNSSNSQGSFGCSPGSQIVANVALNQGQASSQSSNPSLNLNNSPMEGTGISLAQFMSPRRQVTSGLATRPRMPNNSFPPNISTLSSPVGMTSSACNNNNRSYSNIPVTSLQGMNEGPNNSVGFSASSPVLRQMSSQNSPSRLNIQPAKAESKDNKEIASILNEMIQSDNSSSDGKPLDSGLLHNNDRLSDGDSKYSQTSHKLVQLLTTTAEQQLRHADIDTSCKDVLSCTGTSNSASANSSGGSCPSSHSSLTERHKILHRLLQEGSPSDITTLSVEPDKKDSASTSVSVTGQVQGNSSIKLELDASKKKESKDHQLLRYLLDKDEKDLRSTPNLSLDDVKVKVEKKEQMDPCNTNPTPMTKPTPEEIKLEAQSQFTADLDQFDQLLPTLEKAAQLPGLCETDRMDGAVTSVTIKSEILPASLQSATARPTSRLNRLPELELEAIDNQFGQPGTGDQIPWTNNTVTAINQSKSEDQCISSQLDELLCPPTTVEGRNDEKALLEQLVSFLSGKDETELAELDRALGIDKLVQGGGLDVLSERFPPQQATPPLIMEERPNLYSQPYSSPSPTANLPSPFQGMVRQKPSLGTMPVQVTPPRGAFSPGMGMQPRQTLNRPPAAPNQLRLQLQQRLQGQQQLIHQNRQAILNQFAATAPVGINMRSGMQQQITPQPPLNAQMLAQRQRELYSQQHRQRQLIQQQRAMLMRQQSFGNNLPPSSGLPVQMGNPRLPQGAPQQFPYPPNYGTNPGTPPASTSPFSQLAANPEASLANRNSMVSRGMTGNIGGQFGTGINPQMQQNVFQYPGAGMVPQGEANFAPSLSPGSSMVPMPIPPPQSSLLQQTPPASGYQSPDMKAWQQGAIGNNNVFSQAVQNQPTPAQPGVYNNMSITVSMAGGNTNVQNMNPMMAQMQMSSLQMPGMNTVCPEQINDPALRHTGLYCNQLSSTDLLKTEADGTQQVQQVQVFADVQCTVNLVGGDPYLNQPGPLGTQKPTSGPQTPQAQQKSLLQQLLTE

Each molecule was assayed against Peroxisome proliferator-activated receptor gamma (Homo sapiens) (UniProt P37231) (assay: PPARgamma agonists recruiting SRC-1 coactivator, primary screen, biochemical (AID 631;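 also: 0% = DMSO and 100% = reference agonist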)). Settings: PPARgamma-SRC-1 coactivator recruitment biochemical assay; at 8 µM; hits give high values.
`CN(C)c1ccc(C(=O)NCC2(N3CCCCC3)CCCCC2)cc1` was tested, and the activation was inactive: 10.4%. In the case of `CCN1CCC(Nc2cccc(F)c2)CC1`, the activation is reported as inactive: 12.1%. With `CCC(CO)(C(=O)OC1CN2CCC1CC2)c1ccccc1` (stereo not given) the activation was inactive: -1.5%. In the case of `COc1cc(OC)cc(C(=O)NCC2(N3CCOCC3)CCCCC2)c1`, the activation is reported as inactive: 3.7%. For `CC(C)(C)OC(=O)N1CCC(Nc2ccccc2)CC1`, the activation was inactive: 7.2%. With `CCOc1ncccc1C(=O)NCC1(N2CCOCC2)CCCCC1` the activation was inactive: 5.9%. With `O=C(OC1CN2CCC1CC2)C1c2ccccc2C=Cc2ccccc21` (stereo not given) the activation was inactive: 2.4%. For `N/C(=N\O)c1c(N)no[n+]1[O-]`, the activation was active: 22.2%. With `COc1ccc(C(=O)NCC2(N3CCOCC3)CCCCC2)cc1OC` the activation was inactive: 12%. `c1ccc(CN2CCC(Nc3ccccc3)CC2)cc1` was tested, and the activation was inactive: 2.5%. With `N#Cc1ccc(C(=O)NCC2(N3CCCCC3)CCCCC2)cc1` the activation was inactive: -0.8%. In the case of `CN1CCN(CCOC(=O)C(O)(c2ccccc2)c2ccccc2)CC1`, the activation is reported as inactive: 2.7%. With `COc1ccc(NC2CCN(C(=O)OC(C)(C)C)CC2)cc1` the activation was inactive: -5.4%. In the case of `O=C(NCC1(N2CCOCC2)CCCCC1)c1cc(=O)[nH]c2ccccc12`, the activation is reported as inactive: 5.3%. In the case of `O=C(NCC1(N2CCCCC2)CCCCC1)c1cccc([N+](=O)[O-])c1`, the activation is reported as inactive: 6.5%. In the case of `N#CC1(Nc2ccccc2)CCN(CCc2ccccc2)CC1`, the activation is reported as inactive: -0.6%. `CN1CCC(Nc2cccc(F)c2)CC1` was tested, and the activation was inactive: -1.2%. For `CN(C)c1cccc(C(=O)NCC2(N3CCCCC3)CCCCC2)c1`, the activation was inactive: -3.4%. For `COc1ccc(CN(CCCl)CCCl)cc1Cl`, the activation was inactive: -2.7%. With `CC(C)c1ccc(NC2CCN(C(=O)OC(C)(C)C)CC2)cc1` the activation was inactive: -7.9%. With `CCOC(=O)N1CCC(Nc2ccc(OC)cc2)CC1` the activation was inactive: 0.4%. For `O=C(OC1CN2CCC1CC2)C1c2ccccc2Oc2ccccc21` (stereo not given), the activation was inactive: -2%. With `O=C(NCC1(N2CCOCC2)CCCCC1)c1cc2ccccc2o1` the activation was inactive: -6.5%. For `COc1ccc(C(=O)NCC2(N3CCCCC3)CCCCC2)c(OC)c1OC`, the activation was inactive: 9.5%. In the case of `COc1ccc(NC2CCN(CCc3ccccc3)CC2)c(OC)c1`, the activation is reported as inactive: 10.3%.
